This is an account of results in PubChem BioAssay AID374 (University of Pittsburgh Molecular Library Screening Center, 2006).

Protein sequences, listed by entry. Tags and fused reporters are not part of them. Lines headed by an entry give the natural chain unless they say otherwise; changes in a name come on top.
UniProt P28562: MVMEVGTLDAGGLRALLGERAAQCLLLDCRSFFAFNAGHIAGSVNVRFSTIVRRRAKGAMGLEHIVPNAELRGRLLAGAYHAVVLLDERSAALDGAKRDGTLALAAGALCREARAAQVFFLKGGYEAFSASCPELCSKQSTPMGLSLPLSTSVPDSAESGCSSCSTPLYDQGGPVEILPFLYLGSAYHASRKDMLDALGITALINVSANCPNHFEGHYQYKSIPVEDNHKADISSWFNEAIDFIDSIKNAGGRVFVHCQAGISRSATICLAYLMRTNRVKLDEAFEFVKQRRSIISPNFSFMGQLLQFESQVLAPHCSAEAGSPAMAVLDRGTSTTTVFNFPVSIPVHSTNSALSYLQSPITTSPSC

Only a part is listed here, and it is no random draw. The source made the active and inactive calls.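 How the source made its calls: active means inhibition above about 50% (limit read from the data); inconclusive means inhibition over screen mean plus 3 SD, below that limit; inactive means the rest.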

The test addresses Dual specificity protein phosphatase 1 (Homo sapiens) (UniProt P28562). Kind of test: MKP-1 phosphatase inhibitors, primary screen, biochemical, in vitro (AID 374).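 Further: 0% = DMSO max control wells and 100% = wells with enzyme stopped by NaOH.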 The following applies: recombinant MKP-1, OMFP hydrolysis fluorescence; active compounds read high;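 compounds tested at a single concentration somewhere between 10 and 100 µM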.
With `Cc1c2non([O-])c-2c(C)[n+](=O)[n+]1[O-]`, the inhibition (in general, the drop in the measured response relative to a control, in per cent) was inactive: 13.4%.

In the case of `CCc1nc2c(n1)c1c(non1O)c1c2no[n+]1[O-]`, the inhibition is inactive: 1.41%.

Take `c1nnnn1CCn1cnnn1`: the inhibition was inactive: -3.16%.

Regarding `O=P(Nc1nccs1)(c1ccccc1)c1ccccc1`, the inhibition is inactive: -1.61%.

Take `O=C(OC1CN2CCC1CC2)c1cccc(Cl)c1` (stereo not given): the inhibition was inactive: 0.96%.

Regarding `COC(=O)c1cc2c(s1)N=C(c1ccccc1)N(C)P2(=O)N1CCOCC1` (stereo not given), the inhibition was inactive: -1.59%.

For the compound `O=P1(Nc2nc3ccc(Cl)cc3s2)COc2ccccc2O1` (stereo not given), the inhibition was inactive: -11.7%.

`Cc1cccc(OCC(=O)OC2CN3CCC2CC3)c1` (stereo not given): the inhibition is inactive: -22.9%.

Take `CCOP1(=S)c2c(C)nn(CCC#N)c2N=C(c2ccc(F)cc2)N1C` (stereo not given): the inhibition is inactive: 24.4%.

Regarding `O=P(Nc1nccs1)(c1ccccc1)c1nc2ccccc2s1` (stereo not given), the inhibition is inactive: 25.1%.

With `CCOP1(=S)c2c(C)nn(CCC#N)c2N=C(c2ccccc2F)N1C` (stereo not given), the inhibition was inactive: -1.95%.

On to `O=P1(Nc2ccc(Br)cn2)COc2ccccc2OC1`, for which the inhibition is inactive: -16.5%.

For `Cc1ccc(OCC(=O)OC2CN3CCC2CC3)cc1` (stereo not given), the inhibition is inactive: -21.8%.

Consider `O=P1(Nc2ncccn2)COc2ccccc2OC1`, for which the inhibition was inactive: -10.4%.

On to `Cc1nn(-c2ccccc2)c2c1P(=O)(N1CCOCC1)N(C)C(c1ccccc1)=N2` (stereo not given), for which the inhibition is inactive: 15.8%.

For `Clc1n[nH]nc1-c1nn[nH][15n]1`, the inhibition was inactive: -3.8%.

As for `O=P1(Nc2ccccn2)COc2ccccc2OC1`, the inhibition was inactive: -11.6%.

Turning to `O=C(COc1ccccc1)OC1CN2CCC1CC2` (stereo not given), the inhibition is inactive: 11.8%.

With `COP1(=S)c2c(C)nn(CCC#N)c2N=C(c2ccc(F)cc2)N1C` (stereo not given), the inhibition is inactive: 18.4%.

Take `O=C(OC1CN2CCC1CC2)C12CC3CC(CC(C3)C1)C2` (stereo not given): the inhibition is inactive: 17.3%.
